Source: PubChem BioAssay AID454 (Sanford-Burnham Center for Chemical Genomics, 2006)
Only a part is listed here, and it is no random draw. Activity calls are given as the source filed them.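 How the source made its calls: active means compound among top-ranked inhibitors of TNF-induced VCAM-1 adhesion protein staining, with the hit upheld by image or statistical review; inactive means the rest, including hits rejected on review.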

Experiment: inhibitors of TNFa-induced VCAM-1 surface display, cell-based, plate reader, pooled HUVEC, TNFa stimulus (AID 454)
Conditions: HUVEC TNFa-induced VCAM-1 surface immunofluorescence, active compounds read high,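 compound tested at 5 µM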

| Compound | inhibition |
| --- | --- |
| COP1(=S)c2c(C)nn(CCC#N)c2N=C(c2ccc(F)cc2)N1C (stereo not given) | inactive: 0% |
| O=C(COc1ccccc1)OC1CN2CCC1CC2 (stereo not given) | inactive: 0% |
| Cc1nn(-c2ccccc2)c2c1P(=O)(N1CCOCC1)N(C)C(c1ccccc1)=N2 (stereo not given) | inactive: 0% |
| CCOP1(=S)c2c(C)nn(CCC#N)c2N=C(c2ccccc2F)N1C (stereo not given) | inactive: 0% |
| O=P(Nc1nccs1)(c1ccccc1)c1ccccc1 | inactive: 0% |
